The values below are quoted from earlier work in patent US7147837B2, “Bioactivated diagnostic imaging constrast agents” (Epix Pharmaceuticals, Inc., priority 1996, dated 2006).

In this series the test system is alpha 1-acid glycoprotein (AAG). The conditions noted are these: binding to AAG; cited from earlier work.

Take `CN(C)CCCN1c2ccccc2CCc2ccccc21` [imipramine]: the Ka is on record as 2.4×10^5.
